{"source": "patent US20230110028A1", "about": "“OXYBATE POLYETHYLENE GLYCOL PRODRUGS” (Tris Pharma, Inc., priority 2021, published 2023)", "origin": "cited, not measured here", "data": [{"substance": "Hydroxypropyl-γ-cyclodextrin", "values": [{"measurement": "Solubility", "result": "≥500", "unit": "mg/mL"}]}]}
